Common to all, as to test: mass photometry; 30 nM SPIN90-C or mutant in PBS, TwoMP instrument (Refeyn), room temperature; dimer and monomer peaks
Assay [1] deals with Human SPIN90-C (residues 274–722) (human) (UniProt Q9NZQ3).
In assay [2] the target is Human SPIN90-C deletion mutant (Δ394–399) (human) (UniProt Q9NZQ3).
Assay [3] concerns the target Human SPIN90-C glycine substitution mutant (G397–G405) (human) (UniProt Q9NZQ3).

For “Human SPIN90-C (residues 274–722) (from UniProt Q9NZQ3 274-722) (domain or fragment)”, the stoichiometry N in assay [1] was 2. In assay [2], “Human SPIN90-C deletion mutant (Δ394–399) (from UniProt Q9NZQ3 274-722) (domain or fragment)” returned a stoichiometry N of 2. In turn, “Human SPIN90-C glycine substitution mutant (G397–G405) (from UniProt Q9NZQ3 274-722) (domain or fragment)” registered a stoichiometry N in assay [3] of 2.

In general, stoichiometry N refers to a count of units in the complex or per binding partner.

The record behind these values is PMC12618257.
